Antibody variant affinities, Ab-91 heavy chain, assay 2

The measurements come from Engelhart et al. 2022 (doi:10.1038/s41597-022-01779-4) through the FLAb antibody collection.

Binding partner: SARS-CoV-2 spike HR2 peptide, sequence PDVDLGDISGINAS.

Each scFv is VL, three GGGGS repeats, VH, as in the parent Ab-91, and differs from it in the CDRs of the heavy chain only.
VL: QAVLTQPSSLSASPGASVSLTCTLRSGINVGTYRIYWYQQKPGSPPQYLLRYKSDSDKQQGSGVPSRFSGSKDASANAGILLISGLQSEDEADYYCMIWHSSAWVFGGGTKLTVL
VH: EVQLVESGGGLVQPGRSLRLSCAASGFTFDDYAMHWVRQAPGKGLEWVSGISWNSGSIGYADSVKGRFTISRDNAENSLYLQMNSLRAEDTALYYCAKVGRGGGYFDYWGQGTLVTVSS

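AAYL51 was designed without a model: most single CDR substitutions and a random sample of double and triple ones. The scFvs were displayed on barcoded MATa yeast, the peptide on MATalpha yeast. The frequency of each diploid, read from paired DNA barcodes, reflects how well the two displayed proteins bind. A regression on co-assayed BCL2-family reference pairs converts the normalised counts of each replicate to an apparent Kd. There are three technical replicates.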

Variants are written as CDR1, CDR2 and CDR3 of the heavy chain (limits as in the source). Parent: GFTFDDYAMH, GISWNSGSIGYADSVK, VGRGGGYFDY. Scale: log10 of Kd in nM, estimated from mating counts; low values are strong binders. Where no diploid with the target was found in that replicate, the entry reads "n.d.": below detection, most likely a poor binder, though not proof of it.

| # | CDR-H1 | CDR-H2 | CDR-H3 | log10 Kd (nM) by replicate | signal with controls |
|---|---|---|---|---|---|
| 1 | GFTFYDYAMH | GISWNSGSTGYADSVT | VGRGGGYFDY | 3.49 / 4.56 / n.d. | 3 of 9 (4.52) |
| 2 | GFTFDDYSMH | GISWNSGSIGYADSVK | VGFGGGYFDY | 2.89 / n.d. / 2.89 | 0 of 9 |
| 3 | FFTFDDYAMH | GASWNSGSIGYADSVK | VGRGGFYFDY | n.d. / 4.99 / n.d. | 2 of 9 (4.32) |
| 4 | GFTFDDYAMH | GIRWNSGSIGHAFSVK | VGRGGGYFDY | 5.02 / 3.96 / 5.45 | 5 of 9 (4.96) |
| 5 | GFTFDDYAMH | GISWNMRSIGYADSVK | VGRGGGYFDW | n.d. / 4.73 / n.d. | 0 of 9 |
| 6 | GFTFDDYAMH | GISWNSGSISYAPSVK | VGRGGGYFDY | 3.60 / n.d. / 3.95 | 4 of 9 (3.96) |
| 7 | GFTFDDYAMH | GISWNSGSAGYADSVK | VIRGGGMFDY | n.d. / 4.00 / 2.57 | 0 of 9 |
| 8 | GFTFDDYAMH | GISWNMGPIGYADSVA | VGRGGGYFDY | n.d. / n.d. / n.d. | 0 of 9 |
| 9 | GFTFDDYHMH | GVSWNSGSIGYADTVK | VGRGGGYFDY | 5.87 / n.d. / n.d. | 4 of 9 (4.78) |
| 10 | GFHFDDYAMH | GISWNWGSIGYADSVK | IGRGGGYFDY | 6.49 / 4.73 / 4.44 | 5 of 9 (5.10) |
| 11 | GFTFDDYAMH | GISWNNGSISYADSVK | VGRGGGYFDY | n.d. / n.d. / n.d. | 1 of 9 (4.63) |
| 12 | GFTIDDYAMH | GISPNSGSIGYADSVK | VFRGGGYFDY | 1.59 / 1.30 / 0.99 | 5 of 9 (4.72) |
| 13 | GFKFDDLAMH | GISWNSGSIGYADSVK | VGRLGGYFDY | n.d. / n.d. / n.d. | 1 of 9 (3.34) |
| 14 | GFTFDDYAMH | GCSWNSGNYGYADSVK | VGRGGGYFDY | 4.31 / n.d. / n.d. | 5 of 9 (4.69) |
| 15 | GFTFDDYAMH | RISWNSGSQGYADEVK | VGRGGGYFDY | 4.65 / n.d. / 5.48 | 3 of 9 (5.52) |
| 16 | GFTSDDYSMH | GISWNSGSIGYADSVK | VGGGGGYFDY | n.d. / n.d. / n.d. | 1 of 9 (2.51) |
| 17 | GFYFDDYAMH | GISWGSGSIGYADSVK | VGRGGGYFDY | 3.47 / 3.67 / 3.88 | 3 of 9 (4.59) |
| 18 | GFFFDDYAMH | GISWNSGSIGYADSVK | VHRGGGYFDY | n.d. / n.d. / n.d. | 1 of 9 (3.25) |
| 19 | GFTFDDFAMH | GISWNSGVIGYADSVK | VGRGGGYFDY | n.d. / n.d. / n.d. | 0 of 9 |
| 20 | GFTFDDYAMH | GISLNSGSIGYADRVK | SGRGGGYFDY | n.d. / n.d. / n.d. | 0 of 9 |
| 21 | GFTFDDFAMH | GISWNVGSIGYADSVK | VARGGGYFDY | n.d. / 5.28 / n.d. | 3 of 9 (4.07) |
| 22 | GFTFDDYAMH | GISWNSGSIGYADSVK | VGRGGIPFDY | 1.73 / 1.77 / 1.12 | 0 of 9 |
| 23 | GFTFRDKAMH | GISWNSGSIGYADSVK | VGRYGGYFDY | n.d. / n.d. / n.d. | 0 of 9 |
| 24 | GFTFDDYAMH | GISWNSRSIGYADSVK | SGRGGGYFHY | n.d. / n.d. / n.d. | 2 of 9 (4.21) |
| 25 | GCTFDDYAMH | PISWPSGSIGYADSVK | VGRGGGYFDY | n.d. / n.d. / n.d. | 0 of 9 |
| 26 | GFTFDDYAMH | GISWNFNSIGYADSVK | VGRGYGYFDY | 4.28 / 5.01 / 4.83 | 4 of 9 (4.48) |
| 27 | GFTFDDYAMH | GISWNSGCIGYADSVK | VGRGGGYFLL | 4.48 / 4.36 / 3.86 | 5 of 9 (4.76) |
| 28 | GFTFDDSAMH | GISWNSGSIGYADSVK | FGKGGGYFDY | n.d. / n.d. / n.d. | 0 of 9 |
| 29 | GFTFDDYAMH | GISWNSGSAGYRDSVK | VGRGGRYFDY | n.d. / n.d. / n.d. | 0 of 9 |
| 30 | GFTKDDYAMH | GISRNSGSIGYADSVK | VGRGGGYFGY | 4.60 / n.d. / n.d. | 0 of 9 |

The first 5 entries again:

CDR-H1	CDR-H2	CDR-H3	log10 Kd (nM) by replicate	signal with controls
GFTFYDYAMH	GISWNSGSTGYADSVT	VGRGGGYFDY	3.49 / 4.56 / n.d.	3 of 9 (4.52)
GFTFDDYSMH	GISWNSGSIGYADSVK	VGFGGGYFDY	2.89 / n.d. / 2.89	0 of 9
FFTFDDYAMH	GASWNSGSIGYADSVK	VGRGGFYFDY	n.d. / 4.99 / n.d.	2 of 9 (4.32)
GFTFDDYAMH	GIRWNSGSIGHAFSVK	VGRGGGYFDY	5.02 / 3.96 / 5.45	5 of 9 (4.96)
GFTFDDYAMH	GISWNMRSIGYADSVK	VGRGGGYFDW	n.d. / 4.73 / n.d.	0 of 9

In this assay the parent's reference entry averaged 1.86; its copy inside this library read 0.88. Nonspecific signal, from three strains lacking the peptide, appeared in 21% of pairings of library AAYL51, centred on 4.54 (5% of these signals below 3.26); values are not corrected for it. Also given: how often the same scFv was detected with the empty control strains, with their mean in brackets.